Here are results for one compound from paper PMC6274642, “Small molecule inhibitors reveal allosteric regulation of USP14 via steric blockade” (Cell Research, 2018).

Sequences of proteins named here, by UniProt entry; tags and fusion partners are left off. A change or cut given only in a name is not applied to a line headed by its entry.
UniProt P54578: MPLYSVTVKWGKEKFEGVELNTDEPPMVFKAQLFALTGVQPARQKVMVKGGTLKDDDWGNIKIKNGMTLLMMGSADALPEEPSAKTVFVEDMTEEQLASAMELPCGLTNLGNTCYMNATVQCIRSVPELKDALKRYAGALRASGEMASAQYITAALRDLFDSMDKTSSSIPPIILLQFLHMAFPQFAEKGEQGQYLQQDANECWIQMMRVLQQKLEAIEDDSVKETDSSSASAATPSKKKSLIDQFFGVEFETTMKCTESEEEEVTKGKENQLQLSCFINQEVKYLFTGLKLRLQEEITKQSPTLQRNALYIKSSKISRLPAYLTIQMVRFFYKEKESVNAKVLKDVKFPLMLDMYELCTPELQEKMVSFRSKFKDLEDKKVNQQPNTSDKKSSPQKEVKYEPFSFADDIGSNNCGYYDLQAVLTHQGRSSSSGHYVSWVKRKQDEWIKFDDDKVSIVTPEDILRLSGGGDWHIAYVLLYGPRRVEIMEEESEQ

Molecules are shown by their SMILES.

By Ki is commonly meant a measure of affinity in units of concentration, obtained from inhibition or displacement. A low value points to a stronger hold on the target.

For the assay, the target named is T1, USP14 (Homo sapiens, UniProt P54578).
T1 construct: Glutathione S-transferase (GST)-tagged full-length USP14; GST (N); made in house
Nature of the assay: Kinetic analysis (Vm, Km) of Ub-AMC hydrolysis by USP14. It is filed as biochemical. On the procedure:
Menten plot of the concentration-dependence of Ub-AMC (1-48 μM) hydrolysis in the presence
The data were fit to a curve by nonlinear regression
(1 picture or pasted object on this page, not shown here)

The compound `Cc1cc(C(=O)CN2CCCC2)c(C)n1-c1ccc(F)cc1` [IU1] had a Ki of 5 µM.
